Among the data in publication PMC5664514 (Proceedings of the National Academy of Sciences of the …, 2017) are IC50 values, retold here.

Chains of the proteins cited; added tags and fusions are not shown. Lines headed by an entry give the natural chain unless they say otherwise; changes in a name come on top.
UniProt Q9UQL6: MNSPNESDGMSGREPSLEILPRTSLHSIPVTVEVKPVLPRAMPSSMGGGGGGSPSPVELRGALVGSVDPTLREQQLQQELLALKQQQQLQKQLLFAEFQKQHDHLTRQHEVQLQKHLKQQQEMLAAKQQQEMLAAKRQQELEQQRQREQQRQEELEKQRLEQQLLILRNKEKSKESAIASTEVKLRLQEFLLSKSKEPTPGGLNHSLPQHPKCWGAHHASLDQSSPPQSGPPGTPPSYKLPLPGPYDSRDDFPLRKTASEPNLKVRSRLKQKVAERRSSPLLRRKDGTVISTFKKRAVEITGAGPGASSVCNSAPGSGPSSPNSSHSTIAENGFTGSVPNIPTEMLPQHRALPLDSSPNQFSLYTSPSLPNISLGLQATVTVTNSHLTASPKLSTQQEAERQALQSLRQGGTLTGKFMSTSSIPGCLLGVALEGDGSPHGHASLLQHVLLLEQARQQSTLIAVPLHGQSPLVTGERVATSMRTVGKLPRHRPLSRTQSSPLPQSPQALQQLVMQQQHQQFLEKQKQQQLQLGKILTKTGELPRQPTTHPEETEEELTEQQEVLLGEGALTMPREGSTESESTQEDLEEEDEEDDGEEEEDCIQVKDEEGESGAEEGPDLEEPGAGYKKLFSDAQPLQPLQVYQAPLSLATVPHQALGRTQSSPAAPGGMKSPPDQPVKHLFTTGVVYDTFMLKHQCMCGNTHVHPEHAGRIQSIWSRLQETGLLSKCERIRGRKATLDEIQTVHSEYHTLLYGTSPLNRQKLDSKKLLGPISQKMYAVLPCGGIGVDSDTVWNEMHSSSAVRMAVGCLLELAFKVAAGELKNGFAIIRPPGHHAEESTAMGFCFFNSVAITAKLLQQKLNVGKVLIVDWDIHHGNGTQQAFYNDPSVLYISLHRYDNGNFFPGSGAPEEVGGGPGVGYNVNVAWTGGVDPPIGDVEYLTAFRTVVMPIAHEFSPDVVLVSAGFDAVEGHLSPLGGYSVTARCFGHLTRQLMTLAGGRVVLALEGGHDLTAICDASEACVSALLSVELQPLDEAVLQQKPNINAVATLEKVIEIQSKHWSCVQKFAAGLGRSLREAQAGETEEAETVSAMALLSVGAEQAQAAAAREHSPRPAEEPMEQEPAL
UniProt Q9UKV0: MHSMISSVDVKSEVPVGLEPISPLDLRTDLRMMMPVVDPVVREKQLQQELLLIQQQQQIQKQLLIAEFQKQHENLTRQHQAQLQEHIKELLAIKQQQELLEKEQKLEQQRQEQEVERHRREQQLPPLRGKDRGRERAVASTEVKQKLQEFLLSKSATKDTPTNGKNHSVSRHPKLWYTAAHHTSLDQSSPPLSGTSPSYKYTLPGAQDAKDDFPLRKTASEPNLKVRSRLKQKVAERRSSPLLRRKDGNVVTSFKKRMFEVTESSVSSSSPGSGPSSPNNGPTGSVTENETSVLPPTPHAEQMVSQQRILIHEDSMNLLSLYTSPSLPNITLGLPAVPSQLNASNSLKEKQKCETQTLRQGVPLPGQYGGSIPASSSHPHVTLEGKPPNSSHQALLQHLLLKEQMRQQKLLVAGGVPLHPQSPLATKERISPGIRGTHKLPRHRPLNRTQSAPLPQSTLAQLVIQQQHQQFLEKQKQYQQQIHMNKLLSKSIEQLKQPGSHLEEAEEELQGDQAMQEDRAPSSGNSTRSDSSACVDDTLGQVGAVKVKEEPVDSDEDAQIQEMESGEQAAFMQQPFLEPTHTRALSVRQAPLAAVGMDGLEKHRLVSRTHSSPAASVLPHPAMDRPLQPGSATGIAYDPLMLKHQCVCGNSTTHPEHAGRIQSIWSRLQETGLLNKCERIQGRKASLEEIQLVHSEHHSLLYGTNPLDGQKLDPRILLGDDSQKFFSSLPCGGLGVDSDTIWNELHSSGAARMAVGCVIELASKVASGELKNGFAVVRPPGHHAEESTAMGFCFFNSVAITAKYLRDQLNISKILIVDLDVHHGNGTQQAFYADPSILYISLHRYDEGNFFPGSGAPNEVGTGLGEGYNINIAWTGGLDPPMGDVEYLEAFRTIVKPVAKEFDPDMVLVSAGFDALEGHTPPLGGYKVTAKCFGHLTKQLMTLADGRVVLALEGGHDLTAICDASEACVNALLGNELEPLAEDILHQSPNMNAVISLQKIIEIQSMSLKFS

The IC50 is the concentration that gives 50% inhibition.

For one assay, the target named is HDAC5 (Homo sapiens, UniProt Q9UQL6). The assay can be described thus: HDAC activity assay. The following applies: read-out: IC50 HDAC5; 10-point dose–response, duplicate.
The target in the next assay is HDAC9 (Homo sapiens, UniProt Q9UKV0). The assay can be described thus: HDAC activity assay. The following applies: read-out: IC50 HDAC9; 10-point dose–response, duplicate.

For `CC(/C=C/C(=O)NO)=C\[C@@H](C)C(=O)c1ccc(N(C)C)cc1` [TSA, trichostatic acid], the IC50 at HDAC5 was 1.18 µM; on HDAC9, 5.2 µM.
